{
  "sequences": {"note": "Chains of the proteins cited; added tags and fusions are not shown.", "UniProt P11712, whole entry": "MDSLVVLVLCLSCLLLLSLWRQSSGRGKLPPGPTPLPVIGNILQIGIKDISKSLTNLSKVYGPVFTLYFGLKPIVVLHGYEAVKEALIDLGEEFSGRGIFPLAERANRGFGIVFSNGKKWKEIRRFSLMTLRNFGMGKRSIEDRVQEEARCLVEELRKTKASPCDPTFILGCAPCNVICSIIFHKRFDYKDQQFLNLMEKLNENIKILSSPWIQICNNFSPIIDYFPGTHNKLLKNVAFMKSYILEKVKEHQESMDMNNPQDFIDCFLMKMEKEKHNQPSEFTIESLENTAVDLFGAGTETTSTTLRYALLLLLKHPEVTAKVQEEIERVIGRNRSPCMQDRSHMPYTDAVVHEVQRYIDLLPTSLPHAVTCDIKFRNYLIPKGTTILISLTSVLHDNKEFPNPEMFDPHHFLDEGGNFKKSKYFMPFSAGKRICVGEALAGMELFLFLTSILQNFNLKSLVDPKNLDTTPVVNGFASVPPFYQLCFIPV"},
  "source": "paper PMC11510805",
  "about": "“In Vivo Effects of a GHR Synthesis Inhibitor During Prolonged Treatment in Dogs” (Pharmaceuticals, 2024)",
  "target": "CYP2C9 (Homo sapiens, UniProt P11712)",
  "conditions": "human liver microsomes",
  "data": [
    {"substance": "Sulphaphenazole", "values": [
      {"measurement": "CYP2C9 Imax of reference inhibitor", "value": 98, "unit": "%"},
      {"measurement": "IC50", "setting": "read-out: CYP2C9 IC50", "value": 0.16, "unit": "µM"}
    ]}
  ]
}
